Measured values published in US20250049962A1, “NEAR-INFRARED FLUORESCENT CONTRAST BIOIMAGING AGENTS FOR IMAGING OF SENTINEL LYMPH NODES” (Curadel Surgical Innovations, Inc., priority 2021, published 2025).
Values after ≈ are worked out from the molar mass of the structure shown.

What was measured:
[1] = SLN imaging after footpad injection, NIR fluorescence imaging; assay type: in vivo; details: 15 minutes post-injection; 5 nmol footpad injection; CD-1 mice
From the text: Neae Infrared fluorescence imaging can be achieved using a number of commercially available imaging systes. For example, the dual-NIR channel FLARE imaging system has been described in detail. It provides simultaneous illumination with white light (400-650 nm) at 40,000 lx, 660 nm NIR Channel 1 excitation at 4 mW/cm^2 and […] NIR Channel 2 excitation at 10 mW/cm^2. Color and two independent NIR fluorescence emission images (≈700 nm for Channel 1 and ≈800 nm for Channel 2) were acquired simultaneously with custom software at rates up to 15 Hz over a 15 cm diameter field of view. NIR fluorescence from Channel 1 was pseudo-colored in red and NIR fluorescence from Channel 2 was pseudo-colored in lime green prior to merger with the color video image. The imaging system was positioned at a distance of 18 inches from the surgical field.
The experimental conditions were: • ICG: Reconstituted in water at 500 μM • SLN700: Reconstituted in 50% ethanol/50% water at 500 μM • CUR-438: Reconstituted in D5W at 500 μM
All foot pad injections and intravenous injections were 10 μL of each of these 500 μM concentrations for a total of 5 nmol per injection. […]
The target tissue was exposed and the SLN was imaged for NIR fluorescence using dual channels [Channel 1 (700 nm) and Channel 2 (800 nm)] of a NIR imaging system.

[2] = iodide added to a concentration of 1-5%; cited from earlier work

CC1(C)C(/C=C/C=C/C=C/C=C2\N(CCCCS(=O)(=O)O)c3ccc4ccccc4c3C2(C)C)=[N+](CCCCS(=O)(=O)[O-])c2ccc3ccccc3c21 [ICG, indocyanine green, reference compound]
first-tier/second-tier signal-to-background ratio [1]: 3.0±0.65
aqueous solubility [2]: 2500 µg/mL (≈ 3.32 mM)
